Assays:
[1] = tested on: C85-5C lymphoblastoid cell line; assay: Cytotoxicity by colony formation in microtiter plates, C85-5C; format: cell-based, human; details: treatment for 7 days
Experimental: Heparinized whole venous blood was obtained from the umbilical cords of newborn infants (human umbilical cord lymphocytes) or EBV-seronegative volunteers (peripheral blood lymphocytes) in collaboration with Temple University Hospital, Philadelphia, PA. Mononuclear leukocytes were prepared by the Ficoll-Hypaque method of Boyum (Scand. J. Clin. Invest. 21 (Sup. 97), 77 (1968)) and were cultured in RPMI-1640 supplemented with 20% fetal bovine serum as described (Henderson et al, Virology 76, 152 (1977)). The lymphoblastoid cell lines BJAB and RAJI were gifts of Drs. Werner and Gertrude Henle, Children's Hospital, University of Pennsylvania, Philadelphia, PA, and were cultured as described above. The lymphoblastoid line C85-5C was obtained by transformation of human umbilical cord lymphocytes following infection with EBV and maintained as described aove. Cultured mouse L cells were maintained in minimum essential medium (Eagle) supplemented with Earle's salts, L-glutamine and 6% fetal bovine serum. […]
IFN-α, core trimer, core tetramer, and core pentamer have been reported to inhibit DNA synthesis in concanavalin A stimulated mouse spleen lymphocytes. Therefore, the effect of these agents on colony formation in closely related lymphoblastoid cell lines was determined (Table 3). […]
*Determined by colony formation in microtiter plates following treatment […]

[2] = tested on: Herpes Simplex Virus Type 1 (HSV-1); assay: Infected centers assay: HSV-1 exposed leukocytes plated onto human foreskin fibroblast monolayers, cytopathic effects (cpe); format: cell-based; set-up: key to cpe at given number of HSV-exposed leukocytes per cell: +++: complete destruction of the monolayer; ++: multiple foci of cpe; +: one focus of cpe; 0: no monolayer disturbances
Experimental: (2'-5')- and (3'-5')A(pA)3 have been reported to be taken up by intact lymphocytes. Therefore, we employed an infected centers assay utilizing lymphocytes to determine the ability of (2'-5') oligonucleotides to inhibit HSV-1. After incubation for 72 hr with or without (2'-5')oligonucleotides, leukocytes exposed to HSV-1 were plated onto human foreskin fibroblast monolayers (Table 2).

[3] = tested on: lymphoblastoid cell lines; assay: Lymphoblast colony formation / cytotoxicity, cell line not given; format: cell-based
Experimental: Heparinized whole venous blood was obtained from the umbilical cords of newborn infants (human umbilical cord lymphocytes) or EBV-seronegative volunteers (peripheral blood lymphocytes) in collaboration with Temple University Hospital, Philadelphia, PA. […] The lymphoblastoid cell lines BJAB and RAJI were gifts of Drs. Werner and Gertrude Henle, Children's Hospital, University of Pennsylvania, Philadelphia, PA, and were cultured as described above. The lymphoblastoid line C85-5C was obtained by transformation of human umbilical cord lymphocytes following infection with EBV and maintained as described aove. Cultured mouse L cells were maintained in minimum essential medium (Eagle) supplemented with Earle's salts, L-glutamine and 6% fetal bovine serum. Interferon-treated mouse L cells were supplied by Dr. Esther H. Chang, National Cancer Institute, NIH. […] EBV stocks were maintained at -70° C. until use. Human umbilical cord lymphocytes and peripheral blood lymphocytes were infected as described (Henderson et al, Supra).
Therefore, the effect of these agents on colony formation in closely related lymphoblastoid cell lines was determined (Table 3).

Epstein-Barr Virus (EBV) = assay: EBV-induced stimulation of DNA synthesis in EBV infected human lymphocytes; format: cell-based
Experimental: Heparinized whole venous blood was obtained from the umbilical cords of newborn infants (human umbilical cord lymphocytes) or EBV-seronegative volunteers (peripheral blood lymphocytes) in collaboration with Temple University Hospital, Philadelphia, PA. Mononuclear leukocytes were prepared by the Ficoll-Hypaque method of Boyum (Scand. J. Clin. Invest. 21 (Sup. 97), 77 (1968)) and were cultured in RPMI-1640 supplemented with 20% fetal bovine serum as described (Henderson et al, Virology 76, 152 (1977)). The lymphoblastoid cell lines BJAB and RAJI were gifts of Drs. Werner and Gertrude Henle, Children's Hospital, University of Pennsylvania, Philadelphia, PA, and were cultured as described above. The lymphoblastoid line C85-5C was obtained by transformation of human umbilical cord lymphocytes following infection with EBV and maintained as described aove. Cultured mouse L cells were maintained in minimum essential medium (Eagle) supplemented with Earle's salts, L-glutamine and 6% fetal bovine serum. Interferon-treated mouse L cells were supplied by Dr. Esther H. Chang, National Cancer Institute, NIH. […] EBV stocks were maintained at -70° C. until use. Human umbilical cord lymphocytes and peripheral blood lymphocytes were infected as described (Henderson et al, Supra). […]

IFN-β: interferon β
Concentration at which colony formation was inhibited by greater than 50 percent [1]: > 1000 U/ml
cpe at given number of HSV-exposed leukocytes per cell ([2]; 25 U/ml, 2 × 10^5 leukocytes): ++
cpe at given number of HSV-exposed leukocytes per cell ([2]; 25 U/ml, 2.2 × 10^4 leukocytes): 0
cpe at given number of HSV-exposed leukocytes per cell ([2]; 25 U/ml, 6.7 × 10^4 leukocytes): +
cpe at given number of HSV-exposed leukocytes per cell ([2]; 100 U/ml, 2 × 10^5 leukocytes): +++
cpe at given number of HSV-exposed leukocytes per cell ([2]; 100 U/ml, 2.2 × 10^4 leukocytes): 0
cpe at given number of HSV-exposed leukocytes per cell ([2]; 100 U/ml, 6.7 × 10^4 leukocytes): 0
cpe at given number of HSV-exposed leukocytes per cell ([2]; 250 U/ml, 2 × 10^5 leukocytes): +
cpe at given number of HSV-exposed leukocytes per cell ([2]; 250 U/ml, 2.2 × 10^4 leukocytes): 0
cpe at given number of HSV-exposed leukocytes per cell ([2]; 250 U/ml, 6.7 × 10^4 leukocytes): 0
cpe at given number of HSV-exposed leukocytes per cell ([2]; 500 U/ml, 2 × 10^5 leukocytes): 0
cpe at given number of HSV-exposed leukocytes per cell ([2]; 500 U/ml, 2.2 × 10^4 leukocytes): 0
cpe at given number of HSV-exposed leukocytes per cell ([2]; 500 U/ml, 6.7 × 10^4 leukocytes): 0
development of cpe from HSV-1 infected leukocytes / HSV-1 replication ([2]; 72 hr incubation, human foreskin fibroblast monolayers): significantly less cytopathic effects
cytotoxicity / effect on lymphoblast colony formation [3]: no appreciable effect
EBV-induced stimulation of DNA synthesis (Epstein-Barr Virus (EBV)): inhibited
